The record followed here is PubChem BioAssay AID1671194 (National Center for Advancing Translational Sciences (NCATS), 2021).

Only a part is listed here, and it is no random draw. Results filed as inconclusive are left out. Active and inactive are the calls of the source. Calls follow the shape of the dose curve; as a rule, active = well fitted inhibition curve with a large enough effect; inconclusive = small, poorly fitted or top-dose-only effect; inactive = no such curve, though single readings can be large or run the other way.

The nature of this experiment: Primary qHTS assay for inhibitors of alpha-synuclein gene (SNCA) expression. Also: nearly all actives have a fitted effect of over 45% in size. As to conditions: HEK-293 SNCA-luciferase knock-in, luminescence, 24 h; at 57.2 µM (top of the series) unless noted. An excerpt:
Assay Submitter (PI): Daniel R. Scoles Ph.D.
Department of Neurology, University of Utah, Salt Lake City, Utah
Accumulation of alpha-synuclein is a main underlying pathological feature of Parkinson's disease (PD) and alpha-synucleinopathies, for which lowering expression of the alpha-synuclein gene (SNCA) is a potential therapeutic avenue. Using a cell-based luciferase reporter of SNCA expression we performed a quantitative high throughput screen (qHTS) of 155,885 compounds in dose response. The screening assay was generated using genome editing to insert the luciferase gene downstream and in frame of the SNCA gene in HEK-293 cells (1). A viability counterscreen using GF-AFC was used to eliminate cytotoxic and false positive compounds. After in silico analysis (clustering, removal of frequent hitter nuisance chemotypes), inhibitor compounds from the primary screen were selected for follow up and re-tested at 11-doses in the SNCA-luc cells (luciferase and GF-AFC confirmation), and in CMV-luc expressing cell line to flag general transcriptional repressors.
Described herein are the results of the primary screen for SNCA inhibitors; decrease in luciferase signal (inhibition of the SNCA gene expression) is the desired output for this assay.
1. Dansithong, W., Paul, S., Scoles, D. R., Pulst, S. M., and Huynh, D. P. (2015) Generation of SNCA Cell Models Using Zinc Finger Nuclease (ZFN) Technology for Efficient High-Throughput Drug Screening. PLoS ONE 10, e0136930.
SEQUENCE No. (e.g., 1, 2, 3, etc.); […] (e.g., Cells, Incubation, Reagent, etc.); VALUE; DESCRIPTION
1; Cells; 4 uL; Dispense 1500 HEK-293-SNCA-luc cells/well into Greiner 1536-well white / solid bottom tissue culture treated plate. The plate was covered with metal lids with gas-exchange holes.
2; Incubate; 24 hours; Incubate at 37C, 5% CO2, 95% RH.
3; Compounds; 23 nL; Compounds and controls were transferred via a Kalypsys Pin Tool (Wako USA) equipped with a 1536-slotted pin array. The plate was covered with metal lids with gas-exchange holes.
4; Incubate; 24 hours; Incubate at 37C, 5% CO2, 95% RH.
5; Dispense; 1 uL; Dispense Gly-Phe-7-amino-4-trifluoromethylcoumarin (GF-AFC, prepared at 125 uM in PBS) was added. The plate was covered with metal lids with gas-exchange holes.
6; Incubate; 30 min; Incubate at 37C, 5% CO2.
7; Detector; Fluorescence; Measure fluorescence with ViewLux microplate reader (PerkinElmer) equipped with 405/10 excitation and 540/25 emission filters.
8; Dispense; 3 uL; Dispense ONE-Glo ([…]) lucifase detection reagent was added to each well. Plates were covered with metal lids with gas-exchange holes.
9; Incubate; 15 min; Incubate at room temperature.
10; Detector; Luminescence; Measure luminescence with ViewLux microplate reader (PerkinElmer) equipped with clear filters.
NOTES (numbers refer to sequence above)
1; HEK-293-SNCA-luc were cultured and suspended in phenol-red free DMEM (4.5 g/L glucose, 25 mM HEPES, cat #21063 (Thermo)).
3; Compounds were added to the assay plate in an 11-point intra plate dose response, 1:3 titration in DMSO with a final concentration range of […]. Vehicle-only plates, with DMSO being pin-transferred to every well, were inserted at the beginning of screening runs to confirm expected assay performance. Activity was normalized to wells containing medium only (-100% activity, full inhibition) and SNCA-luc cells treated with DMSO vehicle control (0% activity), contained on the same plate as test samples.
10; Signals were analyzed, and dose-response curves were fit using the Hill equation. Compounds in curve classes -1.1, -1.2, -2.1, -2.2 in the SNCA-luc assay were considered active. Compounds were eliminated from further consideration if also active (curve class -1.1, -1.2, -1.3, -1.4, -2.1, -2.2, -2.3, -2.4) in the GF-AFC cytotoxicity assay.
`CCC(=O)N(c1ccccc1)C1CCNCC1`: the activity change, negative = inhibition was inactive: 22.7% [at 25.6 µM].

In the case of `O=C(NCC1(N2CCOCC2)CCCCC1)c1ccc([N+](=O)[O-])cc1`, the activity change, negative = inhibition was inactive: -6.38%.

For the molecule `O=C(NCC1(N2CCOCC2)CCCCC1)c1ccccc1[N+](=O)[O-]`, the activity change, negative = inhibition was inactive: -4.86%.

Take `O=C(NCC1(N2CCOCC2)CCCCC1)c1ccccc1`: the activity change, negative = inhibition is inactive: 13.1%.

Regarding `CN(C)C1(CNC(=O)c2ccc(C(C)(C)C)cc2)CCCCC1`, the activity change, negative = inhibition is inactive: 43.6%.

On to `CC(C)(C)c1ccc(C(=O)NCC2(N3CCOCC3)CCCCC2)cc1`, for which the activity change, negative = inhibition is inactive: -29.9%.

As for `Cc1ccccc1C(=O)NCC1(N(C)C)CCCCC1`, the activity change, negative = inhibition is inactive: 20.9%.

For the molecule `COc1cc(C(=O)NCC2(N3CCOCC3)CCCCC2)cc(OC)c1OC`, the activity change, negative = inhibition is inactive: 30.2%.

In the case of `CCOC(=O)N1CCC(=O)CC1`, the activity change, negative = inhibition is inactive: -1.26% [at 25.6 µM].

`O=C(NCC1(N2CCOCC2)CCCCC1)c1ccc(Cl)cc1`: the activity change, negative = inhibition is inactive: -26.8%.

Consider `COc1ccccc1C(=O)NCC1(N2CCOCC2)CCCCC1`, for which the activity change, negative = inhibition is inactive: 0.272%.

In the case of `CCOC(=O)C(=O)CBr`, the activity change, negative = inhibition is inactive: -21.4%.

As to `CCOc1ccc(C(=O)NCC2(N3CCOCC3)CCCCC2)cc1`, the activity change, negative = inhibition was inactive: -23.9%.

Turning to `O=C(NCC1(N2CCOCC2)CCCCC1)c1ccccc1Br`, the activity change, negative = inhibition is inactive: -7.7%.
